US20260384449A1, “MACROCYCLIC AMINOPYRIDINE COMPOUNDS AS EGFR INHIBITORS” (published 2026)

Amino acid sequences for entries named in this document (tags omitted). A change or cut given only in a name is not applied to a line headed by its entry. Chains listed by the source or under a name are the forms on record and can include a tag or linker. Residues count along the entry.
UniProt P00533, 25-1210 C797S/L858R limits assumed: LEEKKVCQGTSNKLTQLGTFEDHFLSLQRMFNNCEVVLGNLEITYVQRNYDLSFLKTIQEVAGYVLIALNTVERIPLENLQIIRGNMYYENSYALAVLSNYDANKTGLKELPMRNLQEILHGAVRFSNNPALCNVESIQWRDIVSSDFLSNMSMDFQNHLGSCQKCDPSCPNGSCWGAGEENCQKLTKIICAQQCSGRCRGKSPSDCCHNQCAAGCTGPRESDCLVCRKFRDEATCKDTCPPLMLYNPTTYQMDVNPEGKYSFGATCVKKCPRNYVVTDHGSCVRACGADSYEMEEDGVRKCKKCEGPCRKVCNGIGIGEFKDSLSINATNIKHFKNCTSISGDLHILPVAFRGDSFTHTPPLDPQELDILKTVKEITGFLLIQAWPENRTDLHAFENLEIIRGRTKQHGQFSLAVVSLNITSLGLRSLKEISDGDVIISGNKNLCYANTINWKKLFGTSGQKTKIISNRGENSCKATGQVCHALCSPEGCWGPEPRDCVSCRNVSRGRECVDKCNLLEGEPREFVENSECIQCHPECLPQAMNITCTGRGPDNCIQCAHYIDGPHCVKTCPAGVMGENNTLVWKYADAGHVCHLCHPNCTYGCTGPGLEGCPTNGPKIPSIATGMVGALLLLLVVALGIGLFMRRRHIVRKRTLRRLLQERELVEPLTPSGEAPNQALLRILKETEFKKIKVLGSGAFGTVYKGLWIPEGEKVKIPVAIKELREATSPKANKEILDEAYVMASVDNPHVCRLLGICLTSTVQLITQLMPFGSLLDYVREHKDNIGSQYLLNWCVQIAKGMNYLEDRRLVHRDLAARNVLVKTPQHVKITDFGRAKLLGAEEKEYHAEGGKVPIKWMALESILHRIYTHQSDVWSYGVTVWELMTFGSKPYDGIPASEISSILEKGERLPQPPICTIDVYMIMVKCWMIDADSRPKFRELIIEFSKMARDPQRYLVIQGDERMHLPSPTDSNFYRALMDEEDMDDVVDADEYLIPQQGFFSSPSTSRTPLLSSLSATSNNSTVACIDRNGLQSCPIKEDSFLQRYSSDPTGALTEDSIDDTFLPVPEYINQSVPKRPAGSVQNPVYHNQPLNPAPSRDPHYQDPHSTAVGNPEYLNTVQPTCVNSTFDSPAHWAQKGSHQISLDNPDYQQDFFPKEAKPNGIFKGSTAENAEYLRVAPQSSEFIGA
UniProt P00533, 25-1210 T790M/C797S/L858R limits assumed: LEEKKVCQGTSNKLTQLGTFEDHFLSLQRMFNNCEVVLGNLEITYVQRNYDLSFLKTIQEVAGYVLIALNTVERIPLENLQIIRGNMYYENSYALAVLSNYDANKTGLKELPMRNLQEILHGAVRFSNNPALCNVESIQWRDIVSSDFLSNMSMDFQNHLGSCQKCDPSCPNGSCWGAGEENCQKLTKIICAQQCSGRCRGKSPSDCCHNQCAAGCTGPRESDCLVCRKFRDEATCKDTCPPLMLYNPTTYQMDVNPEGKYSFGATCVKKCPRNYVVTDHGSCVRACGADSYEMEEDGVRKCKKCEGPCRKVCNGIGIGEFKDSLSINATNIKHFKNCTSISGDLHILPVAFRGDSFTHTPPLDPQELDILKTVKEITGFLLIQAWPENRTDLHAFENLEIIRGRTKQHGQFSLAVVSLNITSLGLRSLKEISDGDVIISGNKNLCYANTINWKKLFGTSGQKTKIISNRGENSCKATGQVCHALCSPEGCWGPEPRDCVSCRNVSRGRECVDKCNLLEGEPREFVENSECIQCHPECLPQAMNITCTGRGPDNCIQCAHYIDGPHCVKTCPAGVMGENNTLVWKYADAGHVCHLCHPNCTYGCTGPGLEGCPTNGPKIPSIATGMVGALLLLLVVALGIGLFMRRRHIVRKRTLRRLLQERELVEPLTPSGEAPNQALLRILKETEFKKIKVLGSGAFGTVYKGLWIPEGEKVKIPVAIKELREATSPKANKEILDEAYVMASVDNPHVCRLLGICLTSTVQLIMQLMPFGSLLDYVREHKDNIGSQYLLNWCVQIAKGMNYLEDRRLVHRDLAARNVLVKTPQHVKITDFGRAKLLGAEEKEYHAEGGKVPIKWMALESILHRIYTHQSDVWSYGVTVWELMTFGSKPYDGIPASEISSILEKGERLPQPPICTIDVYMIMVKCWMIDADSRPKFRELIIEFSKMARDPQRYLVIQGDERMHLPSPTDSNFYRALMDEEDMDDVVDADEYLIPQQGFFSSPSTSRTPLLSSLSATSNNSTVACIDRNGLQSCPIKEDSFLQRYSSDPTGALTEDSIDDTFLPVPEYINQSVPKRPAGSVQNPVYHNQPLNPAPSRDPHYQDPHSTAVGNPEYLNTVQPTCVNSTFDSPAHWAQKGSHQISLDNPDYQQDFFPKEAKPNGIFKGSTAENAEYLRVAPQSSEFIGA
UniProt P00533, with tags, fused parts or gaps DEL746-750/C797S limits assumed: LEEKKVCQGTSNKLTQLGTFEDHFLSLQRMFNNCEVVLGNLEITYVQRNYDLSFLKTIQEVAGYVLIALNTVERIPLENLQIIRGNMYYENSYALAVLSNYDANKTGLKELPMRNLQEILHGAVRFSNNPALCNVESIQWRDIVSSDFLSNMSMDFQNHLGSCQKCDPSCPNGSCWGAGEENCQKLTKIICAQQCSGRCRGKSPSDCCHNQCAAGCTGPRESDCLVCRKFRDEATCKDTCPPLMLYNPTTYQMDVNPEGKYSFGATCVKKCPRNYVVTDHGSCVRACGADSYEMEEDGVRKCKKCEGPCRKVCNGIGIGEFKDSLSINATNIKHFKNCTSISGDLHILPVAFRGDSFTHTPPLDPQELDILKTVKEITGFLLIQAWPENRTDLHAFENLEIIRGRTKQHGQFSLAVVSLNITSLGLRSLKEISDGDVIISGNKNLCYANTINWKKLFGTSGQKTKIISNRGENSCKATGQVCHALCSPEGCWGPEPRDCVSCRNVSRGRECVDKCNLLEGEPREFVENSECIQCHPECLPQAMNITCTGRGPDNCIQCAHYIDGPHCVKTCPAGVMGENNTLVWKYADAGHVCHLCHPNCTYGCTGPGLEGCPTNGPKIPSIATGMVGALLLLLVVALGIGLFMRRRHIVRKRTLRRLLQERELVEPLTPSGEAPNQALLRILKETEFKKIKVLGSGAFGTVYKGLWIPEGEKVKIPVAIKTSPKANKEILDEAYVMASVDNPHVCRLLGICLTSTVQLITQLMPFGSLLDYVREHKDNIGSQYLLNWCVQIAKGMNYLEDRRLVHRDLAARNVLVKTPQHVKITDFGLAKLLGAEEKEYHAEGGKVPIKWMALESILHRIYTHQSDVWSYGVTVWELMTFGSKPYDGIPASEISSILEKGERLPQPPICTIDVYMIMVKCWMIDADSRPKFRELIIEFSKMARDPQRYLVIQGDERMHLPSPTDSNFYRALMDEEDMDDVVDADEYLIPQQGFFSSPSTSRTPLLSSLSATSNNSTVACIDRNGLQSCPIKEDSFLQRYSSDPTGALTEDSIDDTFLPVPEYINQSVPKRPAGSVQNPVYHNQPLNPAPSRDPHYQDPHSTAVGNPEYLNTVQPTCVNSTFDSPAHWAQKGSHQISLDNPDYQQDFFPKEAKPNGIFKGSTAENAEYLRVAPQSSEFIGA
UniProt P00533, with tags, fused parts or gaps DEL746-750/T790M/C797S limits assumed: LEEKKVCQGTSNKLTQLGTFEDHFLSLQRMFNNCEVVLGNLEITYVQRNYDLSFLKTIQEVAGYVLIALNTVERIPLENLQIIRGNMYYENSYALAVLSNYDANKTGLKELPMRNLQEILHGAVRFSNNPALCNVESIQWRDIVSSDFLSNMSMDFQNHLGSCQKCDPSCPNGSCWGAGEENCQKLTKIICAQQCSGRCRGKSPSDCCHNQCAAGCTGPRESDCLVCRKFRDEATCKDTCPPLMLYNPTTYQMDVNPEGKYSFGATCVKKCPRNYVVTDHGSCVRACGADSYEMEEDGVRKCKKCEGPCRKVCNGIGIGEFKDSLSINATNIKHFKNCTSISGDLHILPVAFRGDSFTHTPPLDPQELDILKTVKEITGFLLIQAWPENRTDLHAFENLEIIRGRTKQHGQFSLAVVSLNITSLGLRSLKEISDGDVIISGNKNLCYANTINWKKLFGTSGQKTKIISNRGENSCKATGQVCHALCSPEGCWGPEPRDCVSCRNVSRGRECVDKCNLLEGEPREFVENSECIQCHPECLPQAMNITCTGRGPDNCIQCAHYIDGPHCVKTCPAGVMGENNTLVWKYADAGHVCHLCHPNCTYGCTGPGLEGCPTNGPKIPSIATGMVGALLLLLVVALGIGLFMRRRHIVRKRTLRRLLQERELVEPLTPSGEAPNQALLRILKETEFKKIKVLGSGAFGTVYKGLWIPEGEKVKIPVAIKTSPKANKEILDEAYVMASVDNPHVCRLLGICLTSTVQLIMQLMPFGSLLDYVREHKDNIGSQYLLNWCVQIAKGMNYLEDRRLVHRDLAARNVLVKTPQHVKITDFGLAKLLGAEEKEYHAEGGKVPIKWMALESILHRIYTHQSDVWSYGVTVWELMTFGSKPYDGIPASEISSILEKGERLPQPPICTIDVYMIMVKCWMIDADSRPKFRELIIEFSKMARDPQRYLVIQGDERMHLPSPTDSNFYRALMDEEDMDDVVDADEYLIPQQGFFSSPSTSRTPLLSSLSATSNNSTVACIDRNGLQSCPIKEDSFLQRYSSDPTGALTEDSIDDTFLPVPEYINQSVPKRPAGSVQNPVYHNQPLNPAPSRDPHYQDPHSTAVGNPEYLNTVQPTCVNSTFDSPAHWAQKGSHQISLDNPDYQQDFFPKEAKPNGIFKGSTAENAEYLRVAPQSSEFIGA
UniProt P00533, 25-1210 limits assumed: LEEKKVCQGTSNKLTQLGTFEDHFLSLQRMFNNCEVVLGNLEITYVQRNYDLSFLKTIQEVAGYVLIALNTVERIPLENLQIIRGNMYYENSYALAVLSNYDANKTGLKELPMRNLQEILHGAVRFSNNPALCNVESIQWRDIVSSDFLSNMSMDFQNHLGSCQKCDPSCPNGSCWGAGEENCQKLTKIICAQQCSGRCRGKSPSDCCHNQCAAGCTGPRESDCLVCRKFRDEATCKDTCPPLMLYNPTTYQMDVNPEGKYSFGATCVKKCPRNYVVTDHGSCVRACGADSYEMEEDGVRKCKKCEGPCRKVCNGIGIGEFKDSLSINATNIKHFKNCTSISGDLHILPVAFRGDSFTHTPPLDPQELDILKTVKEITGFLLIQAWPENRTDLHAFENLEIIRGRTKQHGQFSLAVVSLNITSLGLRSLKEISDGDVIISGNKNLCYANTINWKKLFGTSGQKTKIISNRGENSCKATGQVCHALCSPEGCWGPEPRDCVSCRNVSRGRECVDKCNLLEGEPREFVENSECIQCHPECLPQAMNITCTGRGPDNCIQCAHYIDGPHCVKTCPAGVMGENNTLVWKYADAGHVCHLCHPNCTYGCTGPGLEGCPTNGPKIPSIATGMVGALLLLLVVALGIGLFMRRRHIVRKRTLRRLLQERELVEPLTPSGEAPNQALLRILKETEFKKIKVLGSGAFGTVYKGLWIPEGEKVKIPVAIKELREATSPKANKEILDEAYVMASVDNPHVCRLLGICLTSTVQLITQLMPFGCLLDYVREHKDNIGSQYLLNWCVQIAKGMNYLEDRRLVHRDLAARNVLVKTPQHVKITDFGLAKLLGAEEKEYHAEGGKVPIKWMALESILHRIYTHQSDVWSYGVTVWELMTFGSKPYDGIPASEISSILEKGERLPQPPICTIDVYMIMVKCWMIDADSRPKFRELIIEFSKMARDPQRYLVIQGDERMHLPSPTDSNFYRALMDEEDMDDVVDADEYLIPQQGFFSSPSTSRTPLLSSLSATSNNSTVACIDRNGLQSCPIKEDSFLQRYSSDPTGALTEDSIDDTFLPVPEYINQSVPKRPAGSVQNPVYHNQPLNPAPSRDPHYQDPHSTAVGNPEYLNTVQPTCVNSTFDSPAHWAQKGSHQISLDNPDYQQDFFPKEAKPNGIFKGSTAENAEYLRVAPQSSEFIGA

Tests used:
[1] = target: EGFR D19TMCS (del19/T790M/C797S) (Homo sapiens, UniProt P00533, C797S/DEL746-750/T790M); experiment: Biochemical EGFR kinase inhibition (Lance Ultra TR-FRET), del19/T790M/C797S; details: read-out: EGFR D19TMCS IC50
[2] = target: EGFR LRTMCS (L858R/T790M/C797S) (Homo sapiens, UniProt P00533, C797S/L858R/T790M); experiment: Biochemical EGFR kinase inhibition (Lance Ultra TR-FRET), L858R/T790M/C797S; details: read-out: EGFR LRTMCS IC50
EGFR D19CS (del19/C797S) = EGFR D19CS (del19/C797S) (Homo sapiens, UniProt P00533, C797S/DEL746-750); experiment: Biochemical EGFR kinase inhibition (Lance Ultra TR-FRET), del19/C797S; details: read-out: EGFR D19CS IC50
EGFR LRCS (L858R/C797S) = EGFR LRCS (L858R/C797S) (Homo sapiens, UniProt P00533, C797S/L858R); experiment: Biochemical EGFR kinase inhibition (Lance Ultra TR-FRET), L858R/C797S; details: read-out: EGFR LRCS IC50
EGFR WT = EGFR WT (Homo sapiens, UniProt P00533); experiment: Biochemical EGFR kinase inhibition (Lance Ultra TR-FRET), wildtype; details: read-out: EGFR WT IC50; ATP at Km

Compound | IC50 ([1]; 1 mM ATP) [nM] | IC50 ([1]; ATP at Km) [nM] | IC50 ([2]; 1 mM ATP) [nM] | IC50 ([2]; ATP at Km) [nM] | IC50 (EGFR D19CS (del19/C797S); 1 mM ATP) [nM] | IC50 (EGFR D19CS (del19/C797S); ATP at Km) [nM] | IC50 (EGFR LRCS (L858R/C797S); 1 mM ATP) [nM] | IC50 (EGFR LRCS (L858R/C797S); ATP at Km) [nM] | IC50 (EGFR WT) [nM]
Cc1nn(C)c2c1-c1nccc(n1)Nc1cc(c(C#Cc3cnn(CC(F)F)c3)cn1)NCC[C@H](C)O2 | < 10 | < 10 | < 10 | < 10 | < 10 | < 10 | 10 to 100 | < 10 | < 10
Cc1nn(C)c2c1-c1nccc(n1)Nc1cc(c(C#Cc3ccc(S(C)(=O)=O)cc3)cn1)N[C@@H](C)CCO2 | < 10 | < 10 | < 10 | < 10 | 10 to 100 | < 10 | 100 to 1000 | < 10 | 10 to 100
C[C@H]1CCOc2c(cnn2C)-c2nccc(n2)Nc2cc(c(C#Cc3ncn(C)n3)cn2)N1 | < 10 | < 10 | < 10 | < 10 | 100 to 1000 | 10 to 100 | > 1000 | 10 to 100 | 10 to 100
Cc1nn(C)c2c1-c1nccc(n1)Nc1cc(c(C#Cc3cnn(C)c3)cn1)NCC[C@H](C)O2 | < 10 | < 10 | < 10 | < 10 | 10 to 100 | < 10 | 10 to 100 | < 10 | 10 to 100
C[C@H]1CCNc2cc(ncc2C#Cc2cnn(C3CCOCC3)c2)Nc2ccnc(n2)-c2cnn(C)c2O1 | < 10 | < 10 | < 10 | < 10 | 10 to 100 | < 10 | 100 to 1000 | < 10 | 10 to 100
Cc1nn(C)c2c1-c1nccc(n1)Nc1cc(c(C#Cc3cn(C)nc3C#N)cn1)N[C@@H](C)CCO2 | < 10 | < 10 | < 10 | < 10 | 10 to 100 | < 10 | 100 to 1000 | < 10 | 10 to 100
C[C@H]1CCNc2cc(ncc2C#Cc2cnn(C)c2)Nc2ccnc(n2)-c2cnn(C)c2O1 | < 10 | < 10 | < 10 | < 10 | < 10 | < 10 | 10 to 100 | < 10 | < 10
Cn1ncc2c1OCC1(CNc3cc(ncc3C#Cc3cnn(C(F)(F)F)c3)Nc3ccnc-2n3)COC1 | 10 to 100 | < 10 | 10 to 100 | < 10 | > 1000 | 100 to 1000 | > 1000 | 100 to 1000 | 100 to 1000
Cc1nn(C)cc1C#Cc1cnc2cc1NCC[C@H](C)Oc1c(c(C)nn1C)-c1nccc(n1)N2 | < 10 | < 10 | < 10 | < 10 | 10 to 100 | < 10 | 10 to 100 | < 10 | 10 to 100
CC(C)n1cc(C#Cc2cnc3cc2N[C@@H](C)CCOc2c(cnn2C)-c2nccc(n2)N3)cn1 | < 10 | < 10 | < 10 | < 10 | 10 to 100 | < 10 | 100 to 1000 | 10 to 100 | 10 to 100
Cc1nn(C)c2c1-c1nccc(n1)Nc1cc(c(C#Cc3cnn(CC(F)F)c3)cn1)N[C@@H](C)CCO2 | < 10 | < 10 | < 10 | < 10 | 10 to 100 | < 10 | 100 to 1000 | < 10 | 10 to 100
C[C@H]1CCOc2c(cnn2C)-c2ncc(F)c(n2)Nc2cc(c(C#Cc3cnn(CC(F)(F)F)c3)cn2)N1 | 10 to 100 | 10 to 100 | 100 to 1000 | < 10 | > 1000 | > 1000 | > 1000 | 100 to 1000 | > 1000
Cn1ncc2c1OCC(C)(C)CNc1cc(ncc1C#Cc1cnn(CC(F)(F)F)c1)Nc1ccnc-2n1 | 10 to 100 | < 10 | 10 to 100 | 10 to 100 | > 1000 | > 1000 | > 1000 | > 1000 | 100 to 1000
Cc1nn(C)c2c1-c1nccc(n1)Nc1cc(c(C#Cc3cn(C)nc3C#N)cn1)NCC[C@@H](C)O2 | < 10 | < 10 | < 10 | < 10 | 10 to 100 | < 10 | 100 to 1000 | < 10 | 100 to 1000
C[C@H]1CCOc2c(cnn2C)-c2nccc(n2)Nc2cc(c(C#Cc3cccnc3)cn2)N1 | < 10 | < 10 | < 10 | < 10 | < 10 | < 10 | 10 to 100 | < 10 | < 10
C[C@H]1CCNc2cc(ncc2C#Cc2cnn(CC(F)(F)F)c2)Nc2ccnc(n2)-c2cnn(C)c2O1 | < 10 | < 10 | < 10 | < 10 | 10 to 100 | 10 to 100 | 10 to 100 | < 10 | 10 to 100

Continued, values first:

IC50 ([1]; 1 mM ATP) [nM] | IC50 ([1]; ATP at Km) [nM] | IC50 ([2]; 1 mM ATP) [nM] | IC50 ([2]; ATP at Km) [nM] | IC50 (EGFR D19CS (del19/C797S); 1 mM ATP) [nM] | IC50 (EGFR D19CS (del19/C797S); ATP at Km) [nM] | IC50 (EGFR LRCS (L858R/C797S); 1 mM ATP) [nM] | IC50 (EGFR LRCS (L858R/C797S); ATP at Km) [nM] | IC50 (EGFR WT) [nM] | Compound
< 10 | < 10 | < 10 | < 10 | < 10 | < 10 | 10 to 100 | < 10 | < 10 | Cc1nn(C)c2c1-c1nccc(n1)Nc1cc(c(C#Cc3cn(C)nc3C#N)cn1)NCC[C@H](C)O2
< 10 | < 10 | 10 to 100 | < 10 | 100 to 1000 | 10 to 100 | > 1000 | 100 to 1000 | 100 to 1000 | C[C@H]1CCOc2c(cnn2C)-c2nccc(n2)Nc2cc(c(C#Cc3ccn(C)n3)cn2)N1
10 to 100 | < 10 | 10 to 100 | < 10 | > 1000 | 100 to 1000 | > 1000 | 100 to 1000 | 100 to 1000 | C[C@H]1CCOc2c(cnn2C)-c2nccc(n2)Nc2cc(c(CCc3cnn(C)c3)cn2)N1
< 10 | < 10 | < 10 | < 10 | 10 to 100 | < 10 | 100 to 1000 | < 10 | 10 to 100 | C[C@H]1CCOc2c(cnn2C)-c2nccc(n2)Nc2cc(c(C#Cc3cnn(CC(F)(F)F)c3)cn2)N1
< 10 | < 10 | 10 to 100 | < 10 | 100 to 1000 | 100 to 1000 | > 1000 | 100 to 1000 | 100 to 1000 | Cn1ncc2c1OCC1(CNc3cc(ncc3C#Cc3cnn(CC(F)(F)F)c3)Nc3ccnc-2n3)COC1
< 10 | < 10 | < 10 | < 10 | < 10 | < 10 | 10 to 100 | < 10 | < 10 | C[C@H]1CCOc2c(cnn2C)-c2nccc(n2)Nc2cc(c(C#Cc3cnn(CC(F)F)c3)cn2)N1
100 to 1000 | 10 to 100 | > 1000 | 10 to 100 | 100 to 1000 | 100 to 1000 | > 1000 | 10 to 100 | 100 to 1000 | Cc1nn(C(F)(F)F)c(C)c1C#Cc1cnc2cc1N[C@@H](C)CCOc1c(c(C)nn1C)-c1nccc(n1)N2

Like-named read-outs stand apart in the source and are kept apart here.
